Test results: US8048915B2, “Biologically active complex” (BioMas Ltd., priority 2001, dated 2011)

Test system: IL-2 receptors of human mononuclear cells
Experiment: Induction of IL-2 receptors of human mononuclear cells (proliferation with recombinant IL-2, 3H thymidine uptake)
Assay type: cell-based
Settings: cell plus recombinant IL2, 1.5 × 10^−6 units

With “recombinant IL2 (human) Biogen: recombinant human IL2 added to cells without test chemical” the “proliferation, 3HT uptake” value (Test A) was “^yCell plus recombinant IL2 (human) Biogen 1.5 × 10^−6 units −3260 counts per minute” and the “proliferation, 3HT uptake” value (Test B) was “Cell plus recombinant IL2 (human) Biogen 1.5 × 10^−6 units 6858. counts per minute”.
